Assay results from PMC10744302.

How the values were obtained:
[1] = biological target: CCR5 I3-1,2,3-Rluc (human) (UniProt P51681); assay: FRET or BRET; BRET saturation assay in living HEK-293 cells: constant amount of Rluc donor plasmid (CCR5 or mutant), increasing amounts of YFP acceptor plasmid; coelenterazine h 5 µM; BRET50 = YFP/Rluc ratio at 50% saturation, one-site fit
[2] = biological target: CCR5-Rluc (wild-type human CCR5, HA-tagged, fused upstream of Renilla luciferase) (human) (UniProt P51681); assay: as above

Substance | BRET50 (YFP/Rluc ratio) [1] | BRET50 (YFP/Rluc ratio) [2]
CD4-YFP (from UniProt P01730 26-458) (receptor) | 20.5 | 
CD4-YFP (from UniProt P01730 26-458) (receptor; other documents disagree on this pair) |  | 4.9
